Assay results taken from patent publication US9700633B2, “Conjugates of water soluble polymer-amino acid oligopeptide-drug, preparation method and use thereof” (JENKEM TECHNOLOGY CO. LTD., TIANJIN BRANCH, priority 2013, dated 2017).
Where a name gives a salt, the structure may show the parent alone.

Experiments:
[1] = test system: human colon cancer HCT-116; experiment: Xenografted tumor of human colon cancer HCT-116 in nude mice; conditions: iv
human lung cancer A549 = experiment: Xenografted tumor of human lung cancer A549 in nude mice; conditions: 45 mg/kg, qw × 3w, iv
[2] = test system: human ovarian cancer SKOV-3; experiment: Xenografted tumor of human ovarian cancer SKOV-3 in nude mice; conditions: 45 mg/kg, qw × 3w, iv

CCc1c2c(nc3ccc(OC(=O)N4CCC(N5CCCCC5)CC4)cc13)-c1cc3c(c(=O)n1C2)COC(=O)[C@]3(O)CC [CPT-11, irinotecan hydrochloride]
Body weight, Beginning ([1]; 15 mg/kg, q3w × 3w): 19.1 g | Body weight, Beginning ([1]; 45 mg/kg, qw × 3w): 19.2 g | Body weight, Beginning (human lung cancer A549): 18.4 g | Body weight, End [2]: 18.4 g
